In US20110124556 (published 2011):

Biological target: human insulin receptor (HIR) (human, UniProt P06213)
Experiment: competition

Kd: 14 nM
B1: S116 (peptide)
chain: FHENFYGWFVRQVSKK
